Earlier results as cited in article PMC4660513 (Pharmacognosy Research, 2015).

Details: cited from earlier work

Substance: buprenorphine hydrochloride
- mean plasma concentration (single intravenous dose (1.2 mg)): 37.52 ng/ml and 0.08 μM
- mean plasma concentration (single sublingual dose (16 mg)): 6.3 ng/ml and 0.012 μM

Several values for one entry are separate records, joined by “and”; a condition that tells them apart may be missing. Identical values can stand only once. Like-named read-outs stand apart in the source and are kept apart here.
